## Antibody variant affinities, Ab-14 light chain, assay 1

All variants were tested on one target, the spike HR2 peptide PDVDLGDISGINAS (SARS-CoV-2).

Each scFv is VH, a 15-residue (Gly4Ser)3 linker, VL, as in the parent Ab-14, and differs from it in the CDRs of the light chain only.
VH: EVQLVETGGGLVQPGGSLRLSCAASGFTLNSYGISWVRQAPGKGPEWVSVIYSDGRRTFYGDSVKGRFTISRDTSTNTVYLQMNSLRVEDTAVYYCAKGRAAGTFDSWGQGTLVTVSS
VL: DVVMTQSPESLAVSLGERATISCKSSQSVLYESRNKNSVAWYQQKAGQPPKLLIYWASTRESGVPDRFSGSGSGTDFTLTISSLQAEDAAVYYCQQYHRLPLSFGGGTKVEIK

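The starting antibody came from a phage panning campaign against this peptide. AAYL50 was designed without a model: most single CDR substitutions and a random sample of double and triple ones. In AlphaSeq, yeast of one mating type display the scFv and yeast of the other type display the target. Mating (16 h, 30 °C) was followed by selection of diploids and sequencing of their barcodes. The ratio of observed to expected reads was calibrated, replicate by replicate, on BCL2-family standards whose Kd was known from biolayer interferometry. Mating was done three times.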

Positions count from residue 1 of the parent VL; S25P puts P in place of S.
All variants listed here change L30 of the VL, counted from its first residue.
Affinities are written as log10 Kd with Kd in nM; a lower number is a better binder.
The mean shown is taken over the replicates in which the pair was detected.
"no signal" marks a missing value. The strain was present, yet no cells mated with the target were sequenced in any replicate, which points to weak or no binding.
In this assay the parent's reference entry averaged 0.65; its copy inside this library read 1.68.

The variant S25P/L30K/E32P showed 2.88 (2 of 3 replicates).
The variant K24Y/L30I/V39L showed 1.57 (3 of 3 replicates).
The variant S25K/L30V/K36V showed 4.16 (2 of 3 replicates).
The variant S26N/L30G/S62F showed 1.61 (3 of 3 replicates).
The variant S25K/L30Q showed 2.80 (1 of 3 replicates).
The variant S25Q/L30G/A57N showed 5.48 (1 of 3 replicates).
The variant L30S/E32K/P101M showed no signal (0 of 3 replicates).
The variant K24D/L30V/E32H showed 3.26 (3 of 3 replicates).
The variant L30M/A57H/R60Y showed 3.82 (1 of 3 replicates).
The variant L30V/S38R/E61Q showed 5.28 (1 of 3 replicates).
The variant L30P/Y31N/N37C showed 2.32 (3 of 3 replicates).
The variant L30V/S38A/L102C showed no signal (0 of 3 replicates).
The variant V29I/L30H/S58T showed 0.96 (3 of 3 replicates).
The variant L30V/S58F showed 2.51 (3 of 3 replicates).
The variant Q27M/L30N/Y31H showed 0.59 (3 of 3 replicates).
The variant S28P/L30Q/W56M showed 0.41 (3 of 3 replicates).
The variant L30Q/T59G/S103I showed 3.21 (3 of 3 replicates).
The variant L30W/V39G/R60V showed 3.57 (3 of 3 replicates).
The variant L30N/R34K/V39M showed 2.97 (3 of 3 replicates).
The variant L30V/A57E/T59K showed 4.79 (1 of 3 replicates).
The variant L30M/S58T/Q96E showed 1.37 (3 of 3 replicates).
The variant S26D/L30E/Q96K showed 1.55 (3 of 3 replicates).
The variant S26M/L30K/E61W showed 1.54 (3 of 3 replicates).
The variant Q27L/L30Q/W56P showed no signal (0 of 3 replicates).
The variant K24L/L30D/R99S showed no signal (0 of 3 replicates).
The variant L30I/K36Y/T59D showed 3.24 (3 of 3 replicates).
The variant S26I/L30Q/S103G showed 2.77 (3 of 3 replicates).
The variant L30W/K36C/S103N showed 1.48 (3 of 3 replicates).
The variant L30E/V39H showed 5.83 (1 of 3 replicates).
The variant L30V/E32V/R99T showed 3.54 (1 of 3 replicates).
The variant L30K/R34H/L102E showed no signal (0 of 3 replicates).
The variant L30P/W56Q/L102S showed no signal (0 of 3 replicates).
The variant L30E/S58K/L102I showed 1.52 (3 of 3 replicates).
The variant L30Q showed 0.88 (3 of 3 replicates).
The variant L30S/Y31I/S33R showed no signal (0 of 3 replicates).
The variant L30I/S58W showed no signal (0 of 3 replicates).
The variant S28F/L30T showed 1.73 (3 of 3 replicates).
The variant L30S/A40I/A57L showed no signal (0 of 3 replicates).
The variant L30Y/Q96R/L102Y showed 2.84 (3 of 3 replicates).
The variant L30Y/N37V/R99G showed no signal (0 of 3 replicates).
The variant V29G/L30K/R99N showed 1.30 (3 of 3 replicates).
The variant S25D/L30A/Q95D showed 0.41 (3 of 3 replicates).
The variant S25H/L30W/R99Y showed 3.33 (1 of 3 replicates).

The 7 strongest on average among those seen in every replicate, once more:

| changes | log10 Kd (nM), mean | seen in |
|---|---|---|
| S25D/L30A/Q95D | 0.41 | 3/3 |
| S28P/L30Q/W56M | 0.41 | 3/3 |
| Q27M/L30N/Y31H | 0.59 | 3/3 |
| L30Q | 0.88 | 3/3 |
| V29I/L30H/S58T | 0.96 | 3/3 |
| V29G/L30K/R99N | 1.30 | 3/3 |
| L30M/S58T/Q96E | 1.37 | 3/3 |

As a blank, each scFv also met three strains without target: over library AAYL50, 18% of these pairings were detected, typically at 4.19 and seldom below 2.99.

Values reported by Engelhart et al. 2022, doi:10.1038/s41597-022-01779-4 (FLAb copy).